The values below come from PubChem BioAssay AID651647 (Sanford-Burnham Center for Chemical Genomics, 2012).

The list shows a part of the results, in another mix than the full data. Activity calls are given as the source filed them.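 How the source made its calls: active means GFP/RFP ratio change of at least 30% with cell ATP level not reduced by more than half and red fluorescence within 50% of control; inactive means the rest, inconclusive results apart.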

This assay addresses Matrix metalloproteinase-14 (Homo sapiens) (UniProt P50281). As to the kind of experiment: MT1-MMP activation inhibitors, cellular reporter – HT1080 RFP-PRO-GFP cells, GFP/RFP fluorescence, primary screen (AID 651647). To be noted: overnight, at 20 µM, active compounds read high, percent of plate control window, DMSO zero. The essentials: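 Material: RFP-PRO-GFP reporter HT1080 cells. Dosing: single-point 20 µM compound, 1% DMSO. Controls: DMSO and RFP-L50D-GFP cell wells. Timing: cells overnight before dosing, compound overnight, 37 °C, 5% CO2. Measure: GFP/RFP fluorescence ratio.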
Regarding `CCC(=O)N(c1ccccc1)C1(COC)CCN(CCn2nnn(CC)c2=O)CC1`, the GFP/RFP ratio change was inactive: 0.278%.

`CCC(=O)N(c1ccccc1)C1(COC)CCN(CCc2cccs2)CC1`: the GFP/RFP ratio change was inactive: -4.07%.
